Data published in ChEMBL document CHEMBL1139835, “Novel quinolizidinyl derivatives as antiarrhythmic agents” (J Med Chem, 2007).

Legend:
Assay type in all cases: functional, Cavia porcellus
Heart [1] = assay: Ventricular action potential duration in spontaneously beating Langendorff-perfused guinea pig heart at 1 nM
Heart [2] = assay: Heart rate in spontaneously beating Langendorff-perfused guinea pig heart at 10 uM; design: unit not given here
Heart [3] = assay: Ventricular action potential duration in spontaneously beating Langendorff-perfused guinea pig heart at 10 uM

C=C[C@H]1CN2CC[C@H]1C[C@@H]2[C@@H](O)c1ccnc2ccc(OC)cc12 [QUINIDINE]
Activity (Heart [1]): 158 ms | Activity (Heart [2]): 107 | Activity (Heart [3]): 229 ms
